Reference: PubChem BioAssay AID588401 (Johns Hopkins Ion Channel Center, 2011)

Protein sequences, listed by entry. Tags and fused reporters are not part of them. Lines headed by an entry give the natural chain unless they say otherwise; changes in a name come on top.
UniProt Q9GZV3: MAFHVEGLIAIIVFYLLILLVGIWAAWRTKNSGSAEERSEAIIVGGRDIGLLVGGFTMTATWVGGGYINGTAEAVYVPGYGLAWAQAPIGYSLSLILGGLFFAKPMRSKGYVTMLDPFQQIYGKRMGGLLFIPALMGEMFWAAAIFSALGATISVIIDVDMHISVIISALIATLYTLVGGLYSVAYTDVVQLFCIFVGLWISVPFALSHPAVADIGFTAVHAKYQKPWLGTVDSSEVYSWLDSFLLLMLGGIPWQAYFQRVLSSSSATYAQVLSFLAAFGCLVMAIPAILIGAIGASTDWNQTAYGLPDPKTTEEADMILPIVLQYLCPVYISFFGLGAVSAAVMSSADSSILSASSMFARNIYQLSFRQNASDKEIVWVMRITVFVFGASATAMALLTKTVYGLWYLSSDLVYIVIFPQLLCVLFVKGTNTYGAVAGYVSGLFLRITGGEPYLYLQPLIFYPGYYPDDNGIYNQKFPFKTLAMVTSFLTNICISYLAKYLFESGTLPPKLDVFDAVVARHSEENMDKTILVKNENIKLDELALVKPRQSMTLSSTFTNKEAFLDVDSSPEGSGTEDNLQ

Molecular target: High affinity choline transporter 1 (Homo sapiens) (UniProt Q9GZV3)
Assay: human choline transporter blockers, potency – cell-based, 10-point CRC, membrane potential dye, dose response (AID 588401)
Conditions: HEK293-CHT, choline-induced depolarization, cells express LV-AA mutant CHT

## CCc1nc2c(n1)c1c(non1O)c1c2no[n+]1[O-]
  IC50: 1.78 µM
